Each structure is given as a SMILES string.

Sequences of proteins named here, by UniProt entry; tags and fusion partners are left off.
UniProt P35968, whole entry: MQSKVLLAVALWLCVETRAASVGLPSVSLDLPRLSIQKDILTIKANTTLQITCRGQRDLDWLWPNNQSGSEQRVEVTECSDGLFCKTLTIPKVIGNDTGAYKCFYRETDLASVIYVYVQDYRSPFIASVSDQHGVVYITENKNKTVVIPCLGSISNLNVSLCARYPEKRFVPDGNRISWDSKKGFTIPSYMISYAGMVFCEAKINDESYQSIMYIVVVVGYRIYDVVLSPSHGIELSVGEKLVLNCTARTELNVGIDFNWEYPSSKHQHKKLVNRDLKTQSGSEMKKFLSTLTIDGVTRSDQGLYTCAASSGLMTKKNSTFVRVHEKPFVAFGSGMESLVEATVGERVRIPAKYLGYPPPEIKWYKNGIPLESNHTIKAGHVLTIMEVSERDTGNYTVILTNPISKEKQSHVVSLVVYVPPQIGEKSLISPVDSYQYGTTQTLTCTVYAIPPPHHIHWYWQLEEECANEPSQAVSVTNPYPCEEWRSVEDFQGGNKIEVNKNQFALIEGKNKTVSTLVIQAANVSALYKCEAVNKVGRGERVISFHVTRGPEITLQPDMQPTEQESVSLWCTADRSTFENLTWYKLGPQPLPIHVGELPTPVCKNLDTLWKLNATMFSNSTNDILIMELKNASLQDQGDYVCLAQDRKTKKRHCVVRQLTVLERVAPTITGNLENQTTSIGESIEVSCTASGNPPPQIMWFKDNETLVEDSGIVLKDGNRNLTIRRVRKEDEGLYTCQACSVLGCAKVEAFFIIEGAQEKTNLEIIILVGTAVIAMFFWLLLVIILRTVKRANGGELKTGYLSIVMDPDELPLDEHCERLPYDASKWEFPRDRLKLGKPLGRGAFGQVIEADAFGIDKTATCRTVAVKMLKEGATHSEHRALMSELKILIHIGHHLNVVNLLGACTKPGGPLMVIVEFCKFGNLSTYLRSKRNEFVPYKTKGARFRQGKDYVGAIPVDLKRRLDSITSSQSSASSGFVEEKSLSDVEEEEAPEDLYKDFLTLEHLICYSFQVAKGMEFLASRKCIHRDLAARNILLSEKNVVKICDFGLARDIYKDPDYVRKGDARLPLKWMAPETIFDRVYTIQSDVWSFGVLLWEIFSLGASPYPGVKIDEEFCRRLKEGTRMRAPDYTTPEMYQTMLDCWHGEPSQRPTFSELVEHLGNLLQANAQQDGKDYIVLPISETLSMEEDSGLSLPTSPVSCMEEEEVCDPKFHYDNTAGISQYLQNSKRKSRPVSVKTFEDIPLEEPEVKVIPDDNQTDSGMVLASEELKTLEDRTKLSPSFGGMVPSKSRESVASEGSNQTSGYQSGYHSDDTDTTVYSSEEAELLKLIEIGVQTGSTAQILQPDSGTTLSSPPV

1 molecule from ChEMBL document CHEMBL1144684, “Evaluation of a series of naphthamides as potent, orally active vascular endothelial growth factor receptor-2 tyrosine kinase inhibitors” (J Med Chem, 2008) can be followed below.

This assay has as its target Vascular endothelial growth factor receptor 2 (Homo sapiens, UniProt P35968).

Usually IC50 stands for the midpoint of a concentration-inhibition curve. Low readings indicate greater potency in that assay, high ones weaker potency in that assay. In turn, `COc1cc2nccc(Oc3ccc4c(C(=O)Nc5ccc(Cl)cc5)cccc4c3)c2cc1OC` returned an IC50 of 0.48 nM. This lies in the sub-nanomolar range.
